# Source: patent publication US7820623B2 (priority 2006, dated 2010)
# The chains behind the UniProt entries cited, without tags or fusion partners.
# UniProt Q09470, whole entry: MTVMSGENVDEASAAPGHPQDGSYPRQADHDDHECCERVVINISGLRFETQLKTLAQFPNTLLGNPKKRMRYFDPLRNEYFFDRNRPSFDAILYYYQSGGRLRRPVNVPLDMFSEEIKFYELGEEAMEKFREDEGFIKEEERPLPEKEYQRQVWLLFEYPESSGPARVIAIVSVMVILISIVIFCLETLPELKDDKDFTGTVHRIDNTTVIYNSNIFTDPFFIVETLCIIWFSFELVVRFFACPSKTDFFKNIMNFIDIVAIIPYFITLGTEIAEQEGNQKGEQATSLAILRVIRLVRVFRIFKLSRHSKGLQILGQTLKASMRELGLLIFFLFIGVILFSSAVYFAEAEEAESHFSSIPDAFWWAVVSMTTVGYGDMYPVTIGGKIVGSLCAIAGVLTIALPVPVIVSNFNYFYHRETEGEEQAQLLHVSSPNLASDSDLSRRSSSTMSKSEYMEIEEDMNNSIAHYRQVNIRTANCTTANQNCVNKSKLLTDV
# UniProt P22001, whole entry: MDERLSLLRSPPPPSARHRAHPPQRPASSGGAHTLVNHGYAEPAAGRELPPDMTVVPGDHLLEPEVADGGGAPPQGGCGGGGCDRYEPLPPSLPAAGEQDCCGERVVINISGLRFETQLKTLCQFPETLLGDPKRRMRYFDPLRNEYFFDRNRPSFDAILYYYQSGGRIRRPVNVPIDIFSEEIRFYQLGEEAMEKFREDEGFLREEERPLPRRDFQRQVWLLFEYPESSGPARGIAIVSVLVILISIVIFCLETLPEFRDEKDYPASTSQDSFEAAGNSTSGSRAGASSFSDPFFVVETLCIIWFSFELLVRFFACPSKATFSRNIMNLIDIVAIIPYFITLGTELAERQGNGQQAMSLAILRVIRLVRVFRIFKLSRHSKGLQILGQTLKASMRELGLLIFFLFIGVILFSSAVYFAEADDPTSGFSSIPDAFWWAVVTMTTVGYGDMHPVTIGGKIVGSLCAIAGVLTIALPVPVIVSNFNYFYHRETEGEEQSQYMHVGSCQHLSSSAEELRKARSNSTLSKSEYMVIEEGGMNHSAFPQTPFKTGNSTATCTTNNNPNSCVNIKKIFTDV
# Key:
# [1] = system: thapsigargin-induced IL-2 production in human whole blood; conditions: read-out: Analogue Activity (IC50) WB/IL-2
# human Kv1.1 (HEK293) = biological target: T1, human Kv1.1 (HEK293) (Homo sapiens, UniProt Q09470); assay: cell-based
# T1 construct: expressed in transfected cells; host or cells: HEK293
# [2] = system: thapsigargin-induced IFN-g production in human whole blood; assay type: cell-based; conditions: read-out: Analogue Activity (IC50) WB/IFNg
# human Kv1.1 = biological target: T2, human Kv1.1 (Homo sapiens, UniProt Q09470); assay: cell-based; assay type: cell-based
# T2 construct: expressed in transfected cells; host or cells: HEK293
# human Kv1.3 (CHO) = biological target: T3, human Kv1.3 (CHO) (Homo sapiens, UniProt P22001); assay: cell-based
# T3 construct: expressed in transfected cells
# human Kv1.3 [3] = biological target: T4, human Kv1.3 (Homo sapiens, UniProt P22001); assay: cell-based; design: expressed in transfected cells
# human Kv1.3 [4] = biological target: T4, human Kv1.3; assay: cell-based
compound,measurement,setting,value
CC[C@H](C)[C@@H]1NC(=O)[C@H](CCCCN)NC(=O)[C@@H](NC(=O)[C@H](CCCCN)NC(=O)[C@@H](NC(=O)[C@H](CC(N)=O)NC(=O)[C@@H](NC(=O)[C@@H](NC(=O)[C@@H](NC(=O)CN)C(C)C)[C@@H](C)CC)[C@@H](C)CC)C(C)C)CSSC[C@@H]2NC(=O)[C@H](CCCCN)NC(=O)CNC(=O)[C@H](Cc3ccccc3)NC(=O)[C@H](CCCNC(=N)N)NC(=O)[C@H](CCSC)NC(=O)CNC(=O)[C@H](C)NC(=O)[C@H](CCCCN)NC(=O)[C@H](CCCCN)NC(=O)[C@@H]3CSSC[C@@H](C(=O)N[C@H](C(=O)N4CCC[C@H]4C(=O)N[C@@H](CCCCN)C(=O)O)[C@@H](C)O)NC(=O)[C@H](Cc4cccc5ccccc45)NC(=O)[C@H](CSSC[C@H](NC(=O)[C@H](CCC(N)=O)NC(=O)[C@H](CCCNC(=N)N)NC(=O)[C@H](CO)NC1=O)C(=O)N[C@@H](CC(C)C)C(=O)N[C@@H](CCC(=O)O)C(=O)N1CCC[C@H]1C(=O)N3)NC(=O)[C@H](CCCCN)NC(=O)CNC(=O)[C@H](CC(N)=O)NC(=O)[C@H](CCSC)NC2=O [H34Nal],IC50,[1],3.32 nM
same,IC50,human Kv1.1 (HEK293),> 3.33 nM
same,IC50,[2],6.19 nM
same,IC50,human Kv1.1,29.2 nM
same,IC50,human Kv1.3 (CHO),0.0603 nM
same,IC50,human Kv1.3 [3],0.215 nM
same,Kv1.3 Selectivity (= Kv1.1/Kv.3 IC50),human Kv1.3 [3],136
"CC[C@H](C)[C@@H]1NC(=O)[C@H](CCCCN)NC(=O)[C@@H](NC(=O)[C@H](CCCCN)NC(=O)[C@@H](NC(=O)[C@H](CC(N)=O)NC(=O)[C@@H](NC(=O)[C@@H](NC(=O)[C@@H](NC(=O)CN)C(C)C)[C@@H](C)CC)[C@@H](C)CC)C(C)C)CSSC[C@@H]2NC(=O)[C@H](CCCCN)NC(=O)CNC(=O)[C@H](Cc3ccccc3)NC(=O)[C@H](CCCNC(=N)N)NC(=O)[C@H](CCSC)NC(=O)CNC(=O)[C@H](C)NC(=O)[C@H](CCCCN)NC(=O)[C@H](CCCCN)NC(=O)[C@@H]3CSSC[C@@H](C(=O)N[C@H](C(=O)N4CCC[C@H]4C(=O)N[C@@H](CCCCN)C(=O)O)[C@@H](C)O)NC(=O)[C@H](Cc4c[nH]cn4)NC(=O)[C@H](CSSC[C@H](NC(=O)[C@H](CCC(N)=O)NC(=O)[C@H](CCCNC(=N)N)NC(=O)[C@H](CO)NC1=O)C(=O)N[C@@H](CC(C)C)C(=O)N[C@@H](CCC(=O)O)C(=O)N1CCC[C@H]1C(=O)N3)NC(=O)[C@H](CCCCN)NC(=O)CNC(=O)[C@H](CC(N)=O)NC(=O)[C@H](CCSC)NC2=O [OSK1, reference compound]",Kv1.1 IC50 relative to Kv1.3 IC50,human Kv1.1,5 fold
same,selectivity ratio of Kv1.1/Kv1.3,human Kv1.1,4 fold
CC[C@H](C)[C@@H]1NC(=O)[C@H](CCCCN)NC(=O)[C@@H](NC(=O)[C@H](CCCCN)NC(=O)[C@@H](NC(=O)[C@H](CC(N)=O)NC(=O)[C@@H](NC(=O)[C@@H](NC(=O)[C@@H](NC(=O)CN)C(C)C)[C@@H](C)CC)[C@@H](C)CC)C(C)C)CSSC[C@@H]2NC(=O)[C@H](CCCCN)NC(=O)CNC(=O)[C@H](Cc3ccccc3)NC(=O)[C@H](CCCNC(=N)N)NC(=O)[C@H](CCSC)NC(=O)CNC(=O)[C@H](C)NC(=O)[C@H](CCCCN)NC(=O)[C@H](CCCCN)NC(=O)[C@@H]3CSSC[C@@H](C(=O)N[C@H](C(=O)N4CCC[C@H]4C(=O)N[C@@H](CCCCN)C(=O)O)[C@@H](C)O)NC(=O)[C@H](Cc4c[nH]cn4)NC(=O)[C@H](CSSC[C@H](NC(=O)[C@H](CCC(N)=O)NC(=O)[C@H](CCCNC(=N)N)NC(=O)[C@H](Cc4cccc5ccccc45)NC1=O)C(=O)N[C@@H](CC(C)C)C(=O)N[C@@H](CCC(=O)O)C(=O)N1CCC[C@H]1C(=O)N3)NC(=O)[C@H](CCCCN)NC(=O)CNC(=O)[C@H](CC(N)=O)NC(=O)[C@H](CCSC)NC2=O [S11Nal],IC50,[1],23.9 nM
same,IC50,[2],17.9 nM
same,Kv1.3 Selectivity (= Kv1.1/Kv.3 IC50),human Kv1.3 [3],57
CC[C@H](C)[C@@H]1NC(=O)[C@H](CCCCN)NC(=O)[C@@H](NC(=O)[C@H](CCCCN)NC(=O)[C@@H](NC(=O)[C@H](CC(N)=O)NC(=O)[C@@H](NC(=O)[C@@H](NC(=O)[C@@H](NC(=O)CN)C(C)C)[C@@H](C)CC)[C@@H](C)CC)C(C)C)CSSC[C@@H]2NC(=O)[C@H](CCCCN)NC(=O)CNC(=O)[C@H](Cc3ccccc3)NC(=O)[C@H](CCCNC(=N)N)NC(=O)[C@H](CCSC)NC(=O)CNC(=O)[C@H](C)NC(=O)[C@H](CCCCN)NC(=O)[C@H](CCCCN)NC(=O)[C@@H]3CSSC[C@@H](C(=O)N[C@H](C(=O)N4CCC[C@H]4C(=O)N[C@@H](CCCCN)C(=O)O)[C@@H](C)O)NC(=O)[C@H](Cc4c[nH]cn4)NC(=O)[C@H](CSSC[C@H](NC(=O)[C@H](CCC(N)=O)NC(=O)[C@H](CCCNC(=N)N)NC(=O)[C@H](CO)NC1=O)C(=O)N[C@@H](CC(C)C)C(=O)N[C@@H](CCC(=O)O)C(=O)N1CCC[C@H]1C(=O)N3)NC(=O)[C@H](CCCCN)NC(=O)CNC(=O)[C@H](CC(N)=O)NC(=O)[C@H](CCSC)NC2=O [Synthetic OSK1],IC50,human Kv1.3 [4],0.039 nM
same,hKv1.1/hKv1.3 selectivity ratio,human Kv1.3 [4],4
CC[C@H](C)[C@@H]1NC(=O)[C@H](CCCCN)NC(=O)[C@@H](NC(=O)[C@H](CCCCN)NC(=O)[C@@H](NC(=O)[C@H](CC(N)=O)NC(=O)[C@@H](NC(=O)[C@@H](NC(=O)[C@@H](NC(=O)CN)C(C)C)[C@@H](C)CC)[C@@H](C)CC)C(C)C)CSSC[C@@H]2NC(=O)[C@H](CCCCN)NC(=O)CNC(=O)[C@H](Cc3ccccc3)NC(=O)[C@H](CCCNC(=N)N)NC(=O)[C@H](CCSC)NC(=O)CNC(=O)[C@H](C)NC(=O)[C@H](CCCCN)NC(=O)[C@H](CCCCN)NC(=O)[C@@H]3CSSC[C@@H](C(=O)N[C@H](C(=O)N4CCC[C@H]4C(=O)N[C@@H](CCCCN)C(=O)O)[C@@H](C)O)NC(=O)[C@H](Cc4c[nH]cn4)NC(=O)[C@H](CSSC[C@H](NC(=O)[C@H](CCC(N)=O)NC(=O)[C@H](CCCNC(=N)N)NC(=O)[C@H](CO)NC1=O)C(=O)N[C@@H](CC(C)C)C(=O)N[C@@H](CCC(=O)O)C(=O)N1CCC[C@H]1C(=O)N3)NC(=O)[C@H](CCCCN)NC(=O)CNC(=O)[C@H](CC(N)=O)NC(=O)[C@H](CCSC)NC2=O [wild-type],Kv1.3 Selectivity (= Kv1.1/Kv.3 IC50),human Kv1.3 [3],5
same,IC50,human Kv1.3 [3]; read-out: Kv1.3 (IC50),0.039 nM

# Where two headings read alike, the source gives them in different places.
